In the assay the target is IGF1R (Homo sapiens, UniProt P08069). Nature of the assay: Cellular IGF-1R assay: inhibition of IGF1R phosphorylation in Hek293 cells, capture ELISA (MSD). Conditions: IGF-triggered receptor phosphorylation. The arrangement: expressed in transfected cells; host or cells: Hek293 (Hek293-IGF1R). Format: cell-based. As to the method: IVa. Cellular IGF-1R and InsR Assays
Compound-mediated inhibition of IGF1R and INSR phosphorylation in Hek293 cells transduced with the corresponding receptors is assessed in a capture ELISA format using the MSD (Meso Scale Discovery) platform. Briefly, 30′000 cells washed and diluted in starvation medium (DMEM high glucose supplemented with 0.1% BSA) are seeded in 90 μL per well into 96-well plates pre-coated with poly-D-lysine (0.1 mg/mL in PBS/O). After 24 h incubation at 37° C. and 5% CO2, dose-response effects are determined with 3-fold serial compound dilutions, starting at 10 μM. The final vehicle concentration is 0.1% DMSO in all wells. Following pre-incubation with compounds for 1 h, receptor phosphorylation is triggered by a 10 min exposure to 1.0 ng/μL IGF for Hek293-IGF1R cells, and 5.0 ng/μL insulin for Hek293-InsR cells. […] Target phosphorylation is then assessed by transferring volumes corresponding to approx. 6 μg Hek293-IGF1R or 0.6 μg Hek293-InsR lysates to MSD assay plates pre-coated with total-IGF1R or total-InsR Abs, respectively. […] Immune complexes are detected by a SULFO-Tag™-coupled anti-rabbit IgG antibody in the presence of 150 μL MSD read-buffer. Light emission at 620 nm triggered by application of electric current is recorded on a MSD Sectorlmager 6000. […] IC50 values [nM] are determined using 4-parametric curve-fitting (XLfit software, V4.3.2).
For orientation: An ELISA detects its analyte on a solid surface through an enzyme-linked reagent.

Chains of the proteins cited; added tags and fusions are not shown. Residues count along the entry.
UniProt P08069, 31-1367: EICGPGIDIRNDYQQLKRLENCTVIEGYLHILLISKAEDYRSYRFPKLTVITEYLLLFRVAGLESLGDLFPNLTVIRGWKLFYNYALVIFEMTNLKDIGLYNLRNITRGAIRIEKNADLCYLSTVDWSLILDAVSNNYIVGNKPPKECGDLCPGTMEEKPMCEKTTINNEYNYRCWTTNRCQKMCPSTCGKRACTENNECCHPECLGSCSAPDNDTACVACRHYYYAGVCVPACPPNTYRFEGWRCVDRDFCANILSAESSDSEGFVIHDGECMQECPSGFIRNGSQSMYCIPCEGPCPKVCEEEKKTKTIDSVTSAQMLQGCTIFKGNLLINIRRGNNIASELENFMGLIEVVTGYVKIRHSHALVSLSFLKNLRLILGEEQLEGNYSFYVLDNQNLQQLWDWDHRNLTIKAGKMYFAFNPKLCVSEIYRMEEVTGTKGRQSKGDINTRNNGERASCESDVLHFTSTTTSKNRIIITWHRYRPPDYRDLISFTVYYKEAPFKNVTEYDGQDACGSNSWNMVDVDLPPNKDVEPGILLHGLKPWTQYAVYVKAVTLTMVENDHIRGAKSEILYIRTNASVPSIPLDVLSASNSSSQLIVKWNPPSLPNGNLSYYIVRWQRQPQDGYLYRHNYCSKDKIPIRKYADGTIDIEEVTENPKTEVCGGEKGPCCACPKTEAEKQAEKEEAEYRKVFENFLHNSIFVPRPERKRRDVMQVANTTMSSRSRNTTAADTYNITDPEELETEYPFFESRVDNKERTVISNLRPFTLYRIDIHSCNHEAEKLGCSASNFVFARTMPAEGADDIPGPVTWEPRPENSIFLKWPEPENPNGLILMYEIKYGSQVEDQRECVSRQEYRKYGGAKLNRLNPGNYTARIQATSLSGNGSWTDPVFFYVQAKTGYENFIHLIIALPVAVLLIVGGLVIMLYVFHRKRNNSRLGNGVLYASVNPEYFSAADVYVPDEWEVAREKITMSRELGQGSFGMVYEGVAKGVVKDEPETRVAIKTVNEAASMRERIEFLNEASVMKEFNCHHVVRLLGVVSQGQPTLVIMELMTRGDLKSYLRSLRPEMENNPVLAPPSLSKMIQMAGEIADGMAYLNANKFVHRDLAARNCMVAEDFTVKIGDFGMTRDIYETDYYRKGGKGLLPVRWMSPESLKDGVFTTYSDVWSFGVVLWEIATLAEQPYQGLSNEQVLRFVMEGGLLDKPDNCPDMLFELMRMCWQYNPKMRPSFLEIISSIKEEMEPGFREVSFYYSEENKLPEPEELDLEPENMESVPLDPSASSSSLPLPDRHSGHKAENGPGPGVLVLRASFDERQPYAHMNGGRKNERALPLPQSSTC

pIC50: −log10 of the molar value.

By pIC50 is commonly meant the IC50 on a negative log10 scale, so that one unit is a factor of ten. A high value points to a small IC50. Take `Nc1ncnc2c1c(-c1cc(OC[C@@H]3CCCO3)ccc1F)cn2[C@H]1C[C@@H](N2CC[S+]([O-])CC2)C1` [Example 11, 5-{2-Fluoro-5-[(S)-1-(tetrahydro-furan-2-yl)methoxy]-phenyl}-7-[cis-3-(1-oxo-1-thiomorpholin-4-yl)-cyclobutyl]-7H-pyrrolo[2,3-d]pyrimidin-4-ylamine]: the pIC50 was 7.04.
Consider `Nc1ncnc2c1c(-c1cc(OC[C@H]3CCCO3)ccc1F)cn2[C@H]1C[C@@H](N2CC[S+]([O-])CC2)C1` [Example 20, 5-{2-Fluoro-5-[(R)-1-(tetrahydro-furan-2-yl)methoxyl]-phenyl}-7-[cis-3-(1-oxo-1-thiomorpholin-4-yl)-cyclobutyl]-7H-pyrrolo[2,3-d]pyrimidin-4-ylamine], for which the pIC50 was 6.70.
